Assay results as given in ChEMBL document CHEMBL1127389, “Synthesis and biological activity of 2-hydroxy and 2-alkoxy analogs of 1 alpha,25-dihydroxy-19-norvitamin D3” (1994).

Key:
Rattus norvegicus [1] = species: Rattus norvegicus; experiment: Bone calcium-mobilizing activity with compound concentration 130 (pmol/d/7 days); type: functional, organism-based
How it was run: (§1)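 Holtzman weanling rats were fed a vitamin D-deficient diet with 0.47% Ca for 1 week, then a 0.02% Ca diet. They received daily intraperitoneal doses in 0.1 mL of 95:5 propylene glycol/ethanol for 7 days; controls got vehicle. Rats were killed 24 h after the last dose. Serum Ca was measured by automatic calcium titrator; on this diet, the rise in serum Ca is taken as bone Ca mobilization. At least 6 rats/group; Student's t-test.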

Rattus norvegicus [2] = species: Rattus norvegicus; experiment: Bone calcium-mobilizing activity with compound concentration 65 (pmol/d/7 days); type: functional, organism-based; how it was run: as §1

C=C1/C(=C/C=C2/CCCC3(C)C2CCC3[C@H](C)CCCC(C)(C)O)C[C@@H](O)C[C@@H]1O (some centres not stated)
Serum Ca2+ (Rattus norvegicus [1]): 5.6 and 5.7
Serum Ca2+ (Rattus norvegicus [2]): 5.2

Where “and” joins values, the source holds several entries; their conditions need not be identical. Identical values can stand only once.
